Drawing on article PMC5404560, “Towards Selective Mycobacterial ClpP1P2 Inhibitors with Reduced Activity against the Human Proteasome” (Antimicrobial Agents and Chemotherapy, 2017), this text covers IC50 for one compound.

Structures are written as SMILES.

One experiment deals with T1, Caspase 3 (Homo sapiens, UniProt P42574).
T1 construct: Reaction Biology Corporation (contract testing)
T1 sequence (P42574 29-277): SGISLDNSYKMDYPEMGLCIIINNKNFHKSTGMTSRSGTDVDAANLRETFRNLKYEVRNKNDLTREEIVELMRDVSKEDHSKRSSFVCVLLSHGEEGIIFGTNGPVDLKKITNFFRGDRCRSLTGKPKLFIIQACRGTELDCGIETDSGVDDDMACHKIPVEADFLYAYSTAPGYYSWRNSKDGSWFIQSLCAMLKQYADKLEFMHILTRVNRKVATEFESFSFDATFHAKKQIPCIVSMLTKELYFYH
The experiment in a line: Protease panel: Caspase 3. The following applies: supplement panel table, test and control compound. It is filed as biochemical.

For another experiment, the target named is T2, Caspase 6 (Homo sapiens, UniProt P55212).
T2 construct: Reaction Biology Corporation (contract testing)
T2 sequence (P55212 24-293): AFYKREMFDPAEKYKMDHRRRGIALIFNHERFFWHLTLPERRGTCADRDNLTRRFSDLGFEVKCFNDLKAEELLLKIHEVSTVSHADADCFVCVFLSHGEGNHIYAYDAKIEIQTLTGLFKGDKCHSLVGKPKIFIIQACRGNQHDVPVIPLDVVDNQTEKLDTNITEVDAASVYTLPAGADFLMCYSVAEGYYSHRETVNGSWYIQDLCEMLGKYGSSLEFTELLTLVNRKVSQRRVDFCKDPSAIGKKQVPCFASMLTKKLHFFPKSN
Description: Protease panel: Caspase 6. The note with it: supplement panel table, test and control compound. It is filed as biochemical.

On to `CC(=O)N[C@@H](CC(=O)O)C(=O)N[C@@H](CCC(=O)O)C(=O)N[C@H](C(=O)N[C@H](C=O)CC(=O)O)C(C)C` [DEVD-CHO], for which the IC50 on Caspase 3 stood at 0.000913 µM; against Caspase 6, 0.00904 µM.

As a reminder, the IC50 is the point on the concentration scale where inhibition reaches its midpoint. A higher IC50 goes with lower potency.
